PubChem BioAssay AID624330 (Southern Research Specialized Biocontainment Screening …, 2012)
The list shows a part of the results. Results with a measured potency or affinity are listed apart. The source made the active and inactive calls.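 The calls were made as follows: active = first-screen hits whose inhibition reached a set limit at any dose in the follow-up dose series; inconclusive = inhibition above the set first-screen limit but never retested; inactive = the rest.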

The chains behind the UniProt entries cited, without tags or fusion partners. Where a name states a change or a piece, a line headed by the entry shows the natural chain unless it says otherwise.
UniProt Q9H0H5: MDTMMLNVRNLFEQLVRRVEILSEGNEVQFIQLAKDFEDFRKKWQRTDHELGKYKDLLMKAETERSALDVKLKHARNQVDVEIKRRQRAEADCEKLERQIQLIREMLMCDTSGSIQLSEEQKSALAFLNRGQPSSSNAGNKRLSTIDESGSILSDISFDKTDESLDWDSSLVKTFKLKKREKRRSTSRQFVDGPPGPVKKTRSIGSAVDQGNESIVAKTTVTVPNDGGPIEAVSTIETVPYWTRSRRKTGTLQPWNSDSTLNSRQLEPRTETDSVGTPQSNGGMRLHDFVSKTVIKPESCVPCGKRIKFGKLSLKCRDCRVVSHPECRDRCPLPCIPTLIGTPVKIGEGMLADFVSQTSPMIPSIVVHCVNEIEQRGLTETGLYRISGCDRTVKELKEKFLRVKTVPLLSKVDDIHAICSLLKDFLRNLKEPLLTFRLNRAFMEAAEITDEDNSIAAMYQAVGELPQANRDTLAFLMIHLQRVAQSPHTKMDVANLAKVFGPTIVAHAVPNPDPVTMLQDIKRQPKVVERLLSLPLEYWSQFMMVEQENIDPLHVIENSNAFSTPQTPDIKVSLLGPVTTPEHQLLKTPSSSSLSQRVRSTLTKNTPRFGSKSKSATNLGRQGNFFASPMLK

The molecules below were run against Rac GTPase-activating protein 1 (Homo sapiens) (UniProt Q9H0H5) (assay: MgcRacGAP GTPase-activating activity inhibitors, confirmation, biochemical, ADP Hunter fluorescence, primary and confirmatory (AID 624330;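 also: fluorescence reports GDP produced by GAP-driven GTP hydrolysis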)). Conditions: MgcRacGAP-stimulated Rac1 GTP hydrolysis, at 30 µM, active compounds read high, GST-tagged Rac1 F28L mutant substrate.

Row | Structure (SMILES) | inhibition
1 | CC1CCNP(=O)(N(CCCl)CCCl)O1 (stereo not drawn) | inactive: 0.47%
2 | CCOC(=O)Nc1ccc([As](=O)(O)O)c(O)c1 | inactive: 0.96%
3 | O=C(O)C(O)c1ccc(N(CCCl)CCCl)cc1 (stereo not drawn) | inactive: 6.67%
4 | O=[N+]([O-])c1ccc(Nc2ccc(Oc3ccc([N+](=O)[O-])cc3[N+](=O)[O-])cc2)c([N+](=O)[O-])c1 | inactive: 6.5%
5 | O=P(Nc1ccccn1)(c1cccc2ccccc12)c1cccc2ccccc12 | inactive: 4.7%
6 | Cc1cc(SC(NC=O)C(Cl)(Cl)Cl)ncn1 (stereo not drawn) | inactive: 13.1%
7 | CCOC(=O)Nc1cccc([As](=O)(O)O)c1 | inactive: 4.22%
8 | O=C(COc1ccccc1)OC1CN2CCC1CC2 (stereo not drawn) | inactive: 2.76%
9 | O=C(O)C(=O)c1ccc(N(CCCl)CCCl)cc1 | inactive: 2.77%
10 | COP1(=S)c2c(C)nn(CCC#N)c2N=C(c2ccc(F)cc2)N1C (stereo not drawn) | inactive: 4.48%
11 | CCC(C)N(CC(C)C)C(=S)SC(NC(C)=O)C(Cl)(Cl)Cl (stereo not drawn) | inactive: 3.31%
12 | CCOC(=O)c1ccc(NC(=O)C(C)(CCl)SC)cc1 (stereo not drawn) | inactive: 8.05%
13 | CSc1ccc(Nc2c([N+](=O)[O-])cc([N+](=O)[O-])cc2[N+](=O)[O-])cc1 | inactive: 0.26%
14 | CC(C)(C)C(=O)NC(Sc1ncccn1)C(Cl)(Cl)Cl (stereo not drawn) | inactive: 11.6%
15 | O=P1(N(CCCl)CCCl)NCCC(C(F)(F)F)O1 (stereo not drawn) | inactive: 5.57%
16 | Clc1n[nH]nc1-c1nn[nH][15n]1 | inactive: 4.29%
17 | CCOP(=O)(Nc1ccc(C)cn1)OCC | inactive: 2.53%
18 | CCOP(=O)(NC(=NC(C)c1ccccc1)NC(C)c1ccccc1)OCC (stereo not drawn) | inactive: 2.61%
19 | O=P1(Nc2ccccn2)COc2ccccc2OC1 | inactive: 6.29%
20 | CCC1=CC2Cc3nc4ccc(Cl)cc4c(N)c3C(C1)C2 (stereo not drawn) | inactive: 8.95%

Row | Structure (SMILES) | inhibition
21 | CC1(CBr)Cn2c(nc3ccccc3c2=O)S1 (stereo not drawn) | inactive: 15.1%
22 | CC(C)/C=N\N=C(\N)N[N+](=O)[O-] | inactive: -8.4%
23 | CN(C(=O)Cc1ccc(Cl)c(Cl)c1)[C@@H]1CCCC[C@H]1N1CCCC1 | inactive: 1.94%
24 | COc1ccccc1CNC(=O)COC(=O)C(O)(c1ccccc1)c1ccccc1 | inactive: 9.86%
25 | CCCC1OP(=O)(Nc2ccccc2)OCC1CC (stereo not drawn) | inactive: -1.2%
26 | O=C(/C=C/c1ccccc1)OC1CN2CCC1CC2 (stereo not drawn) | inactive: 3.44%
27 | CN(C)C1(CNC(=O)c2ccc(S(C)(=O)=O)cc2)CCCCC1 | inactive: -0.97%
28 | CC1CCC(C(C)C)C(OP(=O)(Nc2ccccn2)c2ccccc2)C1 (stereo not drawn) | inactive: 1.85%
29 | Cc1ccc(C(=O)OC2CN3CCC2CC3)cc1 (stereo not drawn) | inactive: 7.39%
30 | Cc1nn(-c2ccccc2)c2c1P(=O)(N1CCOCC1)N(C)C(c1ccccc1)=N2 (stereo not drawn) | inactive: 7.75%
31 | O=P1(Nc2ccc(Br)cn2)COc2ccccc2OC1 | inactive: 6.82%
32 | NS(=O)(=O)c1cccc(NC(=O)COC(=O)C(O)(c2ccccc2)c2ccccc2)c1 | inactive: 2.07%
33 | Cc1ccc(OCC(=O)OC2CN3CCC2CC3)cc1 (stereo not drawn) | inactive: 2.33%
34 | O=[As](O)(c1cccs1)c1cccs1 | inactive: 3.92%
35 | Nc1cccc([As](=O)(O)c2ccccc2)c1 | inactive: 0.99%
36 | O=P1(Nc2ncccn2)COc2ccccc2OC1 | inactive: 5.16%
37 | Nc1ccccc1[As](=O)(O)c1ccccc1 | inactive: 4.65%
38 | O=C(O)COc1ccc([As](=O)(O)O)cc1[N+](=O)[O-] | inactive: 3.36%
39 | O=P(Nc1nccs1)(Oc1ccccc1)Oc1ccccc1 | inactive: -15.4%
40 | CCOP1(=S)c2c(C)nn(CCC#N)c2N=C(c2ccccc2F)N1C (stereo not drawn) | inactive: 18.1%

Row | Structure (SMILES) | inhibition
41 | CN(C(=O)Cc1ccc(Cl)c(Cl)c1)[C@H]1CC[C@@]2(CCCO2)C[C@@H]1N1CCCC1 | inactive: 6.35%
42 | CN(C)C(=O)c1cc([N+](=O)[O-])cc2c1-c1c(cc([N+](=O)[O-])cc1[N+](=O)[O-])C2=O | inactive: -2.29%
43 | O=[N+]([O-])c1ccc2c(c1)nnn2O | inactive: 6.15%
44 | CN(C(=O)Cc1ccccc1)[C@@H]1CC[C@]2(CCCO2)C[C@H]1N1CCCC1 | inactive: 4.56%
45 | CCOP1(=S)c2c(C)nn(CCC#N)c2N=C(c2ccc(F)cc2)N1C (stereo not drawn) | inactive: -0.913%
46 | N#CCCN(C(=O)COC(=O)C(O)(c1ccccc1)c1ccccc1)c1ccc(F)cc1 | inactive: 6.47%
47 | NC(=O)Nc1ccc([As](=O)(O)O)cc1 | inactive: 11.9%
48 | O=[As](O)(c1cccc(O)c1)c1cccc(O)c1 | inactive: 5.78%
49 | Cc1cccc(OCC(=O)OC2CN3CCC2CC3)c1 (stereo not drawn) | inactive: 3.45%
50 | CS(=O)(=O)c1ccc(Cl)c(NC(=O)COC(=O)C(O)(c2ccccc2)c2ccccc2)c1 | inactive: 4.26%
51 | COc1cc(C(=O)NCC2(N3CCOCC3)CCCCC2)cc(Cl)c1OC(C)C | inactive: 11.9%
52 | O=[As](O)(O)c1cccnc1 | inactive: 11.5%
53 | O=C(OC1CN2CCC1CC2)c1ccc(Cl)cc1 (stereo not drawn) | inactive: 7.17%
54 | CCOP(=O)(Nc1cccc2ccccc12)OCC | inactive: 6.84%
55 | COc1cc(C2NCCC3(OCCO3)C2(C)C)cc(OC)c1OC (stereo not drawn) | inactive: -17.1%
56 | CCCOP(=S)(Nc1nc(N)cc(=O)[nH]1)OCCC | inactive: 6.5%
57 | Cc1ccc(NCCc2c([N+](=O)[O-])cc([N+](=O)[O-])cc2[N+](=O)[O-])cc1 | inactive: 1.21%
58 | Nc1cccc2c([As](=O)(O)O)cccc12 | inactive: 14.1%
